In PubChem BioAssay AID504913 (The Scripps Research Institute Molecular Screening Center, 2011):
The list shows a part of the results, in another mix than the full data. Calls of active or inactive are those of the source. Rule as the data show it: active = activation above about 18%; inactive = the rest.

Experiment: activation of mu-delta opioid heterodimer signal – cell-based, luminescence, counter-screen for HTR5A agonist project (AID 504913)
Settings: U2OS counter-screen cells, complementation luminescence, 3 h; at 9.3 µM; hits give high values

Cc1ccc(NP(C)(=O)Oc2ccccc2)c(C)c1 (stereo unspecified)
activation: inactive: 1.49%
